The source of these data is PubChem BioAssay AID602250 (The Scripps Research Institute Molecular Screening Center, 2012).

The entries are a selection whose mix differs from that of the whole data set. Active and inactive are the calls of the source.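 How the source made its calls: active means inhibition above a per-plate cutoff, the plate's mean sample inhibition plus 3 SD (cut at about 24% in these data); inactive means the rest.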

The nature of the assay: calcium signal blockers in parental CHO-K1 cells – cell-based, Fluo-8 calcium fluorescence, full deck, 1536-well, counter-screen for M1 antagonist project, primary screen (AID 602250).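 Further: 0% = DMSO plus EC80 ATP and 100% = DMSO alone without ATP.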 The following applies: ATP-induced calcium, Fluo-8 fluorescence, at 3 µM, active compounds read high.
Broadly, the inhibition is the drop in the measured response relative to a control, in per cent. Turning to `CC1CCN(C(=O)Oc2c(Cl)cc(Cl)c3cccnc23)CC1`, the inhibition was inactive: 4.58%.
For `c1cc(-c2nn[nH]n2)ccc1-c1nn[nH]n1`, the inhibition is inactive: -3.43%.
Then `CN(C)C(=O)OCCc1n(C)cc[n+]1C`, with inactive: -6.58%; and `CC(C)c1nc(Nc2ccccc2)n(P(=O)(N(C)C)N(C)C)n1`, with inactive: -7.2%.
Take `CC(C)=N/N=C(\N)N[N+](=O)[O-]`: the inhibition is inactive: -2%.
Then `CCN(/C(=N/P(=O)(N1CCOCC1)N1CCOCC1)N1CCOCC1)c1ccc(OC)cc1`, with inactive: -4.77%; and `C[N+]1=C2C=CC=CC=C2SC12C([N+](=O)[O-])=CC([N+](=O)[O-])=C[C-]2[N+](=O)[O-]` (stereo not drawn), with active: 34.5%.
Take `Nc1ccc([As](=O)(O)c2ccc(N)cc2)cc1`: the inhibition was inactive: -5.69%.
Then `CCc1nc2c(n1)c1c(non1O)c1c2no[n+]1[O-]`, with inactive: -5.21%.
Consider `O=[N+]([O-])c1cc([N+](=O)[O-])c(CCNc2ccccc2)c([N+](=O)[O-])c1`, for which the inhibition is inactive: -12.4%.
The result for `Cc1ccc(NP(=O)(Oc2ccccc2)Oc2ccccc2)nc1` reads inactive: -4.85%.
Then `O=[N+]([O-])c1cccc2n[nH]nc12`, with inactive: 19.1%.
Regarding `CC(=O)N1C2C3N(C(C)=O)C1C1N(C(C)=O)C(C(N1C(C)=O)N3C(C)=O)N2C(C)=O`, the inhibition was inactive: -4.34%.
For the molecule `COc1ccc(C2=NCC(CBr)S2)cc1` (stereo not drawn), the inhibition was inactive: -13.9%.
As for `O=C(O)CNc1ccc([As](=O)(O)O)cc1`, the inhibition was inactive: -6.43%.
As to `C/C=C1/C[C@@H](C)[C@](O)(CO)C(=O)OCC2=CCN3CC[C@@H](OC1=O)[C@@H]23`, the inhibition is inactive: -3.34%.
As to `COC(=O)C1(C)COP(=O)(Nc2ccccc2)OC1` (stereo not drawn), the inhibition was inactive: -6.54%.
Then `O=[N+]([O-])c1cccc(NC2=NCC(CBr)S2)c1` (stereo not drawn), with inactive: -2.94%; and `O=[N+]([O-])c1ncn(CCn2ncnc2[N+](=O)[O-])n1`, with inactive: -0.74%; and `CC(C)(C)C(=O)NC(Sc1ccncn1)C(Cl)(Cl)Cl` (stereo not drawn), with inactive: -12.2%.
As to `O=C(Nc1cc([As](=O)(O)O)ccc1O)c1ccccc1`, the inhibition was inactive: -18.3%.
The result for `O=P1(N(CCCl)CCCl)OCCCS1` (stereo not drawn) reads inactive: -2.29%; that for `Nc1cccc2ccc([As](=O)(O)O)cc12`, inactive: -3.27%.
For `CCN(N=Nc1nonc1N)c1nonc1N`, the inhibition is inactive: -13.3%.
`Cc1ccc(NP(=O)(Oc2ccccc2F)Oc2ccccc2F)nc1`: the inhibition was inactive: -0.53%.
In the case of `CN(C(=O)Cc1ccc(Cl)c(Cl)c1)[C@H]1CCCC[C@@H]1N1CCCC1`, the inhibition was inactive: -0.46%.
As for `Cc1cc(SC(NC(=O)c2ccc(F)cc2)C(Cl)(Cl)Cl)ncn1` (stereo not drawn), the inhibition was inactive: -3.64%.
The result for `CCOP(=O)(Nc1ccccc1)OCC` reads inactive: 10.1%; that for `O=P(Nc1nc2ccc(Cl)cc2s1)(c1ccccc1)c1ccccc1`, inactive: 13.3%; that for `CN(C)P(=O)(N(C)C)n1c(Nc2ccccc2)nnc1-c1ccccc1`, inactive: 1.5%.
Then `CCCC1OP(N)(=O)OCC1CC` (stereo not drawn), with inactive: -15.7%; and `CC(=O)O[C@]1(C)C(=O)OC/C2=C/CN(C)CCC(OC(=O)[C@@](O)(C(C)O)C[C@H]1C)C2=O` (stereo partly drawn), with inactive: -8.3%; and `CC(=O)Nc1ccc([As](=O)(O)O)cc1`, with inactive: -4.21%.
In the case of `O=C(O)c1ccccc1[As](=O)(O)O`, the inhibition is inactive: 0.49%.
The result for `O=[N+]([O-])C1C(O)C(O)C([N+](=O)[O-])C(O)C1O` (stereo not drawn) reads inactive: -7.56%; that for `O=C(NC(Sc1ccncn1)C(Cl)(Cl)Cl)c1ccccc1` (stereo not drawn), inactive: -14.1%; that for `Oc1ccccc1CNc1ccccn1`, inactive: -15.3%.
Then `Nc1cc(N)c2nonc2c1[N+](=O)[O-]`, with inactive: 0.61%; and `CC(C)CC(=O)NC(Sc1ccc(Cl)cc1)C(Cl)(Cl)Cl` (stereo not drawn), with inactive: -0.38%; and `CN1CCCC(OC(=O)C(c2ccccc2)c2ccccc2)C1` (stereo not drawn), with inactive: -1.46%.
For the molecule `Clc1ccc(Cl)c(NC2=NCC(CBr)S2)c1` (stereo not drawn), the inhibition is inactive: -0.43%.
Then `Cc1ccc(OP(=O)(Nc2nccs2)Oc2ccc(C)cc2)cc1`, with inactive: -15.2%; and `COc1ccccc1OP(=O)(Nc1ccc(C)cn1)Oc1ccccc1OC`, with inactive: 13.6%.
The result for `CC(C)[C@H]1C(=O)O[C@@H]2CCN3CC=C(COC(=O)[C@](C)(O)[C@]1(C)O)[C@H]23` reads inactive: -8.12%; that for `Cc1ccc(N/C(=N/P(=O)(N2CCOCC2)N2CCOCC2)N2CCOCC2)cc1`, inactive: 12.7%; that for `CN(C(=O)Cc1ccc(Cl)c(Cl)c1)[C@H]1CCCC[C@H]1N1CCCC1`, inactive: -4.69%.
The result for `NC(=O)c1cc([N+](=O)[O-])cc([N+](=O)[O-])c1N` reads inactive: -7.79%; that for `CC(=O)Nc1ccc(Oc2c([N+](=O)[O-])cc([N+](=O)[O-])cc2[N+](=O)[O-])cc1`, inactive: -6.08%.
Turning to `CC(=O)Nc1ccc([As](=O)(O)O)c(O)c1`, the inhibition was inactive: -18.9%.
Then `C[C@H]1OP(=O)(Oc2ccccc2)C[C@@H]2O[C@@H]21` (stereo partly drawn), with inactive: -10.7%.
Consider `C[C@@H]1C=CCP(=O)(Oc2ccccc2)O1` (stereo partly drawn), for which the inhibition is inactive: -8.71%.
With `Cc1ccccc1CN(C)C(=O)COC(=O)C(O)(c1ccccc1)c1ccccc1`, the inhibition was inactive: -7.26%.
Regarding `CCN(CC)CCOC(=O)C(O)(c1ccccc1)c1ccccc1`, the inhibition was inactive: -0.23%.
Then `COC(=O)C1(C)COP(=O)(NCc2ccccc2)OC1` (stereo not drawn), with inactive: 5.24%; and `CC1C(=O)OC2CCN3CC=C(COC(=O)C(C)(O)C1(C)O)C23` (stereo not drawn), with inactive: 4.65%; and `CC(=O)c1ccc(N2CC2c2ccncc2)cc1` (stereo not drawn), with inactive: -10.6%.
As to `N#C/C(=C\c1ccc(N(CCBr)CCBr)cc1)C(N)=O`, the inhibition was inactive: -11.7%.
On to `CC(C)(C)C(=O)NC(Sc1ccccc1)C(Cl)(Cl)Cl` (stereo not drawn), for which the inhibition was inactive: -10.1%.
The result for `CCc1cc(O)c([N+](=O)[O-])c(C)c1[N+](=O)[O-]` reads inactive: -10.2%; that for `CCOc1ccc(C2=NCC(CBr)S2)cc1` (stereo not drawn), inactive: -12.3%; that for `O=c1c2cc([N+](=O)[O-])ccc2[nH]c2c([N+](=O)[O-])cc([N+](=O)[O-])cc12`, inactive: 5.76%.
The result for `CN(C)C(=O)Oc1noc2ccccc12` reads inactive: -7.42%.
Turning to `CC(NC(=O)COC(=O)C(O)(c1ccccc1)c1ccccc1)c1ccccc1` (stereo not drawn), the inhibition was inactive: -4.99%.
